Measured values taken from patent US20170217976A1, “6-(AMINO ACID)-MORPHINAN DERIVATIVES IN COMBINATION WITH PERMEATION […] FOR USE AS AN ORALLY, […], TRA[…] NASALLY AD[…]” (C[…], priority 2014, published 2017).

By UniProt entry, the sequences of proteins in these tests, tags left out. Where a name states a change or a piece, a line headed by the entry shows the natural chain unless it says otherwise.
UniProt P41144: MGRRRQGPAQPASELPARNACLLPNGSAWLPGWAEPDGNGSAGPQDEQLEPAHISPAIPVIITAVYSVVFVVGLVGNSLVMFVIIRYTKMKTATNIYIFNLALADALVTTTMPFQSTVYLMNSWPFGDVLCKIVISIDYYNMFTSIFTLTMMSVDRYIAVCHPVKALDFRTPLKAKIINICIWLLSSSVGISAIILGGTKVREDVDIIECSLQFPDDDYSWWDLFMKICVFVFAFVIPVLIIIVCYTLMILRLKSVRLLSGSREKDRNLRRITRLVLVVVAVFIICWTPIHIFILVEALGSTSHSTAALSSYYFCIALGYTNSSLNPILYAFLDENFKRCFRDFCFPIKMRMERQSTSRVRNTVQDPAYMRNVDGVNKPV

Target: KOR (Cavia porcellus, UniProt P41144)
Assay: Opioid receptor binding, KOR, guinea pig brain membranes
Details: read-out: Binding Ki (nM) KOR, in vitro binding assay

Molecule `CO[C@@]12CC[C@@H](N[C@@H](Cc3ccccc3)C(=O)OC(C)(C)C)[C@@H]3Oc4c(O)ccc5c4[C@@]31CCN(C)[C@@H]2C5` [4-t-Bu ester] has a Ki of 151 nM.
